The values below come from publication PMC7723054.

T1: LIN28A (human?, UniProt Q9H9Z2 1-209)
T1 sequence: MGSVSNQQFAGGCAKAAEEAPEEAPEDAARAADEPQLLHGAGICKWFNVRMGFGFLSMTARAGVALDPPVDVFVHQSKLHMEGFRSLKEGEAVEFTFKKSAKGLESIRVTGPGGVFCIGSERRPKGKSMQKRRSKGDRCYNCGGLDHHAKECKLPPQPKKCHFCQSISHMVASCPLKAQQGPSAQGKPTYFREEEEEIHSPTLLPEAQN

T2: CIRBP (Homo sapiens, UniProt Q14011 1-172)
T2 sequence: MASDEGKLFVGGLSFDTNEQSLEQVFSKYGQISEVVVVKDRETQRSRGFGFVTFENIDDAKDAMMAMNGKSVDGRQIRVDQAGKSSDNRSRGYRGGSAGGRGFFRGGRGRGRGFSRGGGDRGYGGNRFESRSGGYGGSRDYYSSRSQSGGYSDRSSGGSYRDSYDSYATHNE

T3: DHX36 (Homo sapiens, UniProt Q9H2U1 1-1008)
T3 sequence: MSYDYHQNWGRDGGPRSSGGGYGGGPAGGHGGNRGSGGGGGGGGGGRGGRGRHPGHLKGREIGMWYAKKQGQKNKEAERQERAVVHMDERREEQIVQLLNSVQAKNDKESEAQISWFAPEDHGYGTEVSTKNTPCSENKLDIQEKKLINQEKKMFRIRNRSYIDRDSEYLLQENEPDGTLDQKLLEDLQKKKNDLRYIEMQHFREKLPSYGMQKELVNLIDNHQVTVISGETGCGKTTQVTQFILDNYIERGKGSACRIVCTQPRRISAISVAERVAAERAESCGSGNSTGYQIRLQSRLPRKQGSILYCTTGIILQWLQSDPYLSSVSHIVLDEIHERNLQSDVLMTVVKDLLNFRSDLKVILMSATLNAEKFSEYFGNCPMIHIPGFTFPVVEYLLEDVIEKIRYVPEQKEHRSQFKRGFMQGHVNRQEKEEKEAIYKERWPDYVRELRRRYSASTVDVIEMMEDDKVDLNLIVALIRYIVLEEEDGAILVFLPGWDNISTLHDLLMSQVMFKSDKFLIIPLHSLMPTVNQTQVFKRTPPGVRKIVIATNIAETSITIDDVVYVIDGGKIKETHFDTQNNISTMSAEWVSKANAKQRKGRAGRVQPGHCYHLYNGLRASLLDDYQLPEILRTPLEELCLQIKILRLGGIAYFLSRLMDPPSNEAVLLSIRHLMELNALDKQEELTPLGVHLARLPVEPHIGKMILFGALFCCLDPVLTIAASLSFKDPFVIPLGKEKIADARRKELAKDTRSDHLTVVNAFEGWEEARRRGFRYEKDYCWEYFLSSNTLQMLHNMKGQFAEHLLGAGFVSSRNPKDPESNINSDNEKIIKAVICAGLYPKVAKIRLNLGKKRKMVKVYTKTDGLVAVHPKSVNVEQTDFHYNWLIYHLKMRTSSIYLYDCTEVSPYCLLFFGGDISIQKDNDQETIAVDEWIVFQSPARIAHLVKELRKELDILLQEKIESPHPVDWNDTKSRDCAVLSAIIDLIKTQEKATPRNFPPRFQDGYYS

B1: hsa-mir-2355 (structured_RNA)
RNA: GGGAACUAUACAACCCUGUUUCGGUUACGGUGUACGAAGUUUCAGCACAAUAUGCUAUUAUAAUCGUAUGGCAUUGUGCUGAAGCUUCGUGCAC
B2: hsa-mir-539 (structured_RNA)
RNA: GGGAAACGGUUAUUAGCCCUGCUCUCCGGGUGUACGAAGUUUCAGCUGUUCGCUUUAUUUAUGAUGAAUCAGCUGAAGCUUCGUGCAC
B3: hsa-mir-6856 (structured_RNA)
RNA: GGGACCUUAGAUUACAGAGGUAAGAAGGGGUGUACGAAGUUUCAGCUGUGGCAGUGGCAGAGGUCGCUACAGCUGAAGCUUCGUGCAC
B4: hsa-mir-7161 (structured_RNA)
RNA: GGGAACUGGUGCCGAGACCGACAUUACUGGUGUACGAAGUUUCAGCCUGGUGUUCUCACGCAAAGUGGCCAGGGUGUGGGAGACUAGAGCUGAAGCUUCGUGCAC
B5: hsa-mir-548g (structured_RNA)
RNA: GGGAACUUCCCUAACCGUGAACUAUCUGGGUGUACGAAGUUUCAGCUUUUUGCAUUACGUUCUAUGGCAAAAGCUGAAGCUUCGUGCAC
B6: hsa-mir-3151 (structured_RNA)
RNA: GGGAACCUUCGCGCGAACUGCUCAUGUUGGUGUACGAAGUUUCAGCCAGGUGCCUCAAAGGGCAUCCCACCUGGCUGAAGCUUCGUGCAC
B7: hsa-mir-6740 (structured_RNA)
RNA: GGGAAUAAAACGGGCGAGCGCACUCAACGGUGUACGAAGUUUCAGCGAGAAACUUGAGGUCUCUGGGAGUUGCUUAAACCAGUUGACCGUAACCUGGCCAGAGAAUUCUGAUAGUGUCGCUGAAGCUUCGUGCAC
B8: hsa-mir-7851 (structured_RNA)
RNA: GGGAAGGUCCCCUCCAGCAUCGAGUUUAGGUGUACGAAGUUUCAGCAGUAGCUGGGAAUACAGGUGUGUGCCACCAUGCCUCUACAAGCUACCGCUGAAGCUUCGUGCAC
B9: hsa-mir-1297 (structured_RNA)
RNA: GGGAAUUACCGAGCGAGGUACGAAAUGAGGUGUACGAAGUUUCAGCAGAAUUACUUAUCUGAGCCAAAGUAAUUCAGCUGAAGCUUCGUGCAC
B10: hsa-mir-7110 (structured_RNA)
RNA: GGGAACCCGGAAUUGACGUAGAAACGAAGGUGUACGAAGUUUCAGCGAGAGAGUGCACAGCCAGCUCAGGGAUUAAAGCUCUUUCUCUCUCUCUCGCUGAAGCUUCGUGCAC
B11: hsa-mir-7973-1 (structured_RNA)
RNA: GGGAAGACUGUCGGCACCUUAGUCUUCGGGUGUACGAAGUUUCAGCUUACCCAACGUCUCUGAGUCUCGGUUUUGAGAGGGUGAGUAAGCUGAAGCUUCGUGCAC
B12: hsa-mir-6718 (structured_RNA)
RNA: GGGACAGUACGUGUAAGCCCGGUUCAGGGGUGUACGAAGUUUCAGCAUGAUAUAUUGUGAGAGCCAUGUCAUGCUGAAGCUUCGUGCAC
B13: hsa-mir-671 (structured_RNA)
RNA: GGGACAUCUACACGACACCUUGCUACGGGGUGUACGAAGUUUCAGCUGGAGGUGAUGGAUGUUUUCCUCCGGCUGAAGCUUCGUGCAC
B14: NEAT1_ParasoR_ID2 (structured_RNA)
RNA: GGGCAGGGCUUACACGAACGGCUGUAAAGGUGUACGAAGUUUCAGCCAUAUAUGAAACUUAAGUUUCUGCUAGUUGCCAUCUUUGAUCUAUCAUGUAUGGCUGAAGCUUCGUGCAC
B15: hsa-mir-7704 (structured_RNA)
RNA: GGGAAAAGCAAACGCCUGGUGUAUCUGUGGUGUACGAAGUUUCAGCCGUGCUCAGCUUGGCACCCAAGUUCUGCGCUGAAGCUUCGUGCAC
B16: hsa-mir-3688-2 (structured_RNA)
RNA: GGGAACGCGAGCGACGCCAUUUAGUAACGGUGUACGAAGUUUCAGCCAUAUGUGUAACAGACAUACAUACAUACAUAUGGCUGAAGCUUCGUGCAC
B17: hsa-mir-619 (structured_RNA)
RNA: GGGACGAGUAGUCUCACAAUCGCCCGAUGGUGUACGAAGUUUCAGCAGCCACUGCGGUCGACCAUGACCUGGAGCUGAAGCUUCGUGCAC
B18: hsa-mir-3187 (structured_RNA)
RNA: GGGAAAACACAGUAGAGGCCACCCACGUGGUGUACGAAGUUUCAGCUGAAGGUCACCAUGUUCUCCUUGGCUGAAGCUUCGUGCAC
B19: hsa-mir-6758 (structured_RNA)
RNA: GGGAAUGACGUGAGUCGCCAUAAUCUACGGUGUACGAAGUUUCAGCAUGUGAUGUGAGCAGAUGGUUCUCACUGCUGAAGCUUCGUGCAC
B20: hsa-mir-3165 (structured_RNA)
RNA: GGGCCCACGCCAAAAUUGACGCCUAACCGGUGUACGAAGUUUCAGCCUCAACUCUUGGUCCUCUGAGGCUGAAGCUUCGUGCAC
B21: hsa-mir-4783 (structured_RNA)
RNA: GGGAAUAACCCAUAGAACGAGACGGGAUGGUGUACGAAGUUUCAGCCGGGCUGAUUGCGCUAACAGUGGCCCCGCUGAAGCUUCGUGCAC
B22: hsa-mir-129-1 (structured_RNA)
RNA: GGGAAGGAGGUCUCACCGAUCCGCAUUAGGUGUACGAAGUUUCAGCGCUUGCUGUUCCUCUCAACAGUAGUCAGGAAGCGCUGAAGCUUCGUGCAC

The other results are listed elsewhere or left out.

One assay concerns the target U1A (Homo sapiens, UniProt P09012). Nature of the assay: FOREST: bead pull-down of RNA structure library v1, barcode microarray; U1A/LIN28A: 20 mM HEPES pH 7.5, 80 mM KCl, 20 mM NaCl, 10% glycerol, 2 mM DTT, 0.1 ug/uL BSA, 4 C; BG4/CIRBP/DHX36: 10 mM Tris-HCl pH 7.5, 100 mM KCl (or LiCl),; high values mean tight binding.
As for B1, the binding signal was 0.23 z-score.
On the same count and under the same terms, as for B2, the figure is 0.234 z-score; as for B3, 0.223 z-score.
Same read-out and setting: as for B4, the figure is 0.236 z-score; as for B5, 0.226 z-score; as for B6, 0.224 z-score.
B7 yielded a binding signal of 0.252 z-score.
The same measure, in the same setting: as for B8, the figure is 0.223 z-score; as for B9, 0.232 z-score; as for B10, 1.87 z-score.
B11 registered a binding signal of 0.241 z-score.
The same measure, in the same setting: under B12 stands 0.23 z-score; under B13, 1.87 z-score.
On to B14, for which the binding signal amounted to 0.229 z-score.
Same read-out and setting: under B15 stands 0.24 z-score.
On to B16, for which the binding signal is 0.252 z-score.
Still for that read-out and setting: under B17 stands 0.228 z-score.
Same read-out and setting: under B18 stands 0.231 z-score; under B19, 0.236 z-score.
On the same count and under the same terms, under B20 stands 0.235 z-score; under B21, 0.219 z-score; under B22, 0.227 z-score.

The target in another assay is T1, LIN28A. Described as above.
B1 had a binding signal of 0.503 z-score.
Same read-out and setting: under B2 stands -0.582 z-score.
On the same count and under the same terms, under B3 stands 0.888 z-score; under B4, 0.61 z-score.
Still for that read-out and setting: under B5 stands -0.242 z-score.
In turn, B6 came in with a binding signal of 0.0359 z-score.
In the case of B7, the binding signal came out at 0.905 z-score.
Still for that read-out and setting: as for B8, the figure is 1.49 z-score.
In turn, B9 displayed a binding signal of 0.0606 z-score.
Same read-out and setting: under B10 stands 1.51 z-score; under B11, -1.3 z-score.
On the same count and under the same terms, under B12 stands 1.72 z-score; under B13, -0.366 z-score.
In turn, B14 yielded a binding signal of -0.427 z-score.
On the same count and under the same terms, under B15 stands 0.36 z-score; under B16, 2.34 z-score.
In turn, B17 returned a binding signal of -1.06 z-score.
The same measure, in the same setting: as for B18, the figure is -0.797 z-score; as for B19, 1.03 z-score.
The same measure, in the same setting: as for B20, the figure is -1.42 z-score; as for B21, -0.323 z-score.
On to B22, for which the binding signal was -0.168 z-score.

The target in a further assay is T2, CIRBP. Described as above.
B1: the binding signal amounted to 0.736 z-score.
On the same count and under the same terms, under B2 stands -0.174 z-score; under B3, 0.501 z-score.
Regarding B4, the binding signal is -0.507 z-score.
The same measure, in the same setting: as for B5, the figure is -0.654 z-score; as for B6, -0.886 z-score; as for B7, -0.0881 z-score.
The same measure, in the same setting: under B8 stands -0.0289 z-score.
On the same count and under the same terms, under B9 stands -0.675 z-score; under B10, 1.81 z-score; under B11, -1.31 z-score.
Turning to B12, the binding signal stood at 0.505 z-score.
The same measure, in the same setting: under B13 stands -0.521 z-score.
On the same count and under the same terms, as for B14, the figure is -0.586 z-score; as for B15, -0.0213 z-score; as for B16, 2.68 z-score.
Same read-out and setting: as for B17, the figure is 0.0336 z-score; as for B18, -0.448 z-score; as for B19, 1.56 z-score.
For the molecule B20, the binding signal was -0.534 z-score.
Molecule B21 gave a binding signal of 0.174 z-score.
Same read-out and setting: under B22 stands 0.879 z-score.

The target in a further assay is T3, DHX36. Described as above.
The molecule B1 yielded a binding signal of 0.607 z-score.
Same read-out and setting: under B2 stands -0.504 z-score; under B3, 0.268 z-score.
Consider B4, for which the binding signal is -0.628 z-score.
Molecule B5 displayed a binding signal of -0.0983 z-score.
Same read-out and setting: as for B6, the figure is -0.105 z-score; as for B7, 1.35 z-score.
Same read-out and setting: as for B8, the figure is -0.201 z-score.
The same measure, in the same setting: under B9 stands 1.59 z-score; under B10, 1.47 z-score.
As to B11, the binding signal was -0.197 z-score.
B12 came in with a binding signal of 1.03 z-score.
Still for that read-out and setting: under B13 stands -0.708 z-score; under B14, 0.639 z-score.
On the same count and under the same terms, as for B15, the figure is -0.311 z-score; as for B16, -0.161 z-score; as for B17, -0.0708 z-score.
Molecule B18 gave a binding signal of -0.552 z-score.
For B19, the binding signal was found to be 0.805 z-score.
B20: the binding signal was -0.247 z-score.
The same measure, in the same setting: as for B21, the figure is -0.362 z-score; as for B22, 0.587 z-score.
